Target: Beta-1 adrenergic receptor (Homo sapiens, UniProt P08588)

Protein sequences, listed by entry. Tags and fused reporters are not part of them.
UniProt P08588, whole entry: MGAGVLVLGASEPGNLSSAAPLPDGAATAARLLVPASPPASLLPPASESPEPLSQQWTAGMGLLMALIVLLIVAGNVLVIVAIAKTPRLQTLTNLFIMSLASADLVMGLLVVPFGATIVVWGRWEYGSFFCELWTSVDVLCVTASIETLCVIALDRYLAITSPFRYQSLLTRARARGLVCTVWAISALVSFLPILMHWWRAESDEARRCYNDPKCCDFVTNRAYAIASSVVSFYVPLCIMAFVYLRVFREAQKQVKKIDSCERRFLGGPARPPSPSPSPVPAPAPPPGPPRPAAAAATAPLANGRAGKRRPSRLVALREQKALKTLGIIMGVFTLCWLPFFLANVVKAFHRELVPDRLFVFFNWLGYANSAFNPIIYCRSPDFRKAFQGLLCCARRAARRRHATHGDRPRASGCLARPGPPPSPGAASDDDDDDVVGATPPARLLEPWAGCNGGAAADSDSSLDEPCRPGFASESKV

Structure (SMILES): CNCC(O)c1ccc(O)c(O)c1 (stereo unspecified) [EPINEPHRINE]
- Ki: 3.97 µM
